Results published in ChEMBL document CHEMBL4000215, “A structure-guided optimization of pyrido[2,3-d]pyrimidin-7-ones as selective inhibitors of EGFRL858R/T790M mutant with improved pharmacokinetic properties” (Eur J Med Chem, 2017).

The chains behind the UniProt entries cited, without tags or fusion partners. Residues count along the entry.
UniProt P00533, 25-1210 T790M/L858R limits assumed: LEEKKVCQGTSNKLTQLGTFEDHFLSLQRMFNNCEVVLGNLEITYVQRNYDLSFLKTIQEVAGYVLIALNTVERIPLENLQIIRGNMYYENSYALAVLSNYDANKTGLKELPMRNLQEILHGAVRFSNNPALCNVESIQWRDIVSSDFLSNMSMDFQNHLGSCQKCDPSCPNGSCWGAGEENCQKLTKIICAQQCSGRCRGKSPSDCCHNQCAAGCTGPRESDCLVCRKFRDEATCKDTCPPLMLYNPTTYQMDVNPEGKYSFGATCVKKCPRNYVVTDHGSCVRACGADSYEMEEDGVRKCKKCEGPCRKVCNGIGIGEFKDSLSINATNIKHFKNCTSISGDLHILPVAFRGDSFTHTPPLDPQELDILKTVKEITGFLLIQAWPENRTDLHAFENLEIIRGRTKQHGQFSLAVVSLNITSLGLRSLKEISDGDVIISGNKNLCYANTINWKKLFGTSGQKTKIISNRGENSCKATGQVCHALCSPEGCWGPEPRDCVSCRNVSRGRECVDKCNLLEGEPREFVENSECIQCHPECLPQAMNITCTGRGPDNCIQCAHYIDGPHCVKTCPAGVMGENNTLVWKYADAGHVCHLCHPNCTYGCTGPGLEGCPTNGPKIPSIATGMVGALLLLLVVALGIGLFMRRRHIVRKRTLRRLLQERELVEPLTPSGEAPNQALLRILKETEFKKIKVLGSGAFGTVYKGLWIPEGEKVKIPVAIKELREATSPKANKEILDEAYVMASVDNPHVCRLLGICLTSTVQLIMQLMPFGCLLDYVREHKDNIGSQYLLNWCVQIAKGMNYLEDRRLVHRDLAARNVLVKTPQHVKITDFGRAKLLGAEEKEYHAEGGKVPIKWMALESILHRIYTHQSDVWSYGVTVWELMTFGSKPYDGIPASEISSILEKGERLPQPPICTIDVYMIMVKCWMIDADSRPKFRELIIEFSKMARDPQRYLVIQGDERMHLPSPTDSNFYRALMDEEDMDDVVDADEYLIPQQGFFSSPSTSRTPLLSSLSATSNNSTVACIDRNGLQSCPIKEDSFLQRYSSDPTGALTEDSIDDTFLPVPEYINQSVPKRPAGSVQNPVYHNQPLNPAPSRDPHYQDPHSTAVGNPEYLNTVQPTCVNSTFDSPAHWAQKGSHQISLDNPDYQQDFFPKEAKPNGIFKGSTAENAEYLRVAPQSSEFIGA

Biological target: Epidermal growth factor receptor (Homo sapiens, UniProt P00533, L858R/T790M)
Experiment: Inhibition of N-terminal 6His/TEV protease cleavage site-tagged human EGFR L858R/T790M double mutant (696 to 1022 residues) using poly (Glu,Tyr) 4:1 as substrate after 1 hr by ELISA

| Structure (SMILES) | IC50 [µM] |
| --- | --- |
| C=CC(=O)N1CC[C@@H](n2c(=O)cc(C)c3cnc(Nc4ccc(N5CCN(C)CC5)cc4OC)nc32)C1 | 0.436 |
| C=CC(=O)N1CC[C@H](n2c(=O)cc(C)c3cnc(Nc4ccc(N5CCN(C)CC5)cc4OC)nc32)C1 | 0.0918 |
